Reference: US20150306241A1, “COPOLYMERS FOR THE DELIVERY OF DRUGS INTO CELLS” (published 2015)

System: A549 cells
Experiment: TATp competition study
Conditions: free TATp 0.35, 3.5 or 35 μM, 2 h, dose-dependent
Procedure: FIG. 24 illustrates TATp competition studies. A549 cells were seeded in 24-well plates at 1.6×10^5 cells/well in 300 μL/well of complete growth media. After 24 h, the free TATp (0.35, 3.5 or 35 μM) was added into the cell media. Then, 10 μL of the rhodamine-PE-labeled MMP2-sensitive nanopreparation (1 mg/mL) was immediately added and incubated for 2 h. The cells were collected and analyzed by FACS.
A549 cells were seeded in 24-well plates at 1.6×10^5 cells/well in 300 μL/well of complete growth media. After 24 h, the free TATp (0.35, 3.5 or 35 μM) was added into the cell media. Then, 10 μL of the rhodamine-PE-labeled MMP2-sensitive nanopreparation (1 mg/mL) was immediately added and incubated for 2 h. The media was removed and the cells were washed with serum-free media three times. Cells were then analyzed by FACS.

Substance: Cys-Tyr-Gly-Arg-Lys-Lys-Arg-Arg-Gln-Arg-Arg-Arg
- effect on cellular uptake of rhodamine-PE-labeled nanopreparations: decreased the TATp-mediated cellular uptake

Some compounds may have been tested in ways that are not shown here.
